Measured values: ChEMBL document CHEMBL1131715 (Bioorg Med Chem Lett, 1999)

Test: Inhibitory activity against zinc-dependent Glutamate Carboxypeptidase G

Row | Structure (SMILES) | Ki [µM]
1 | CP(O)(=S)N[C@@H](CCC(=O)O)C(=O)O (some centres not stated) | 6.2
2 | CCP(O)(=S)N[C@@H](CCC(=O)O)C(=O)O (some centres not stated) | 1.24
